The experiment has as its system HepG2 cells. As to the kind of experiment: Cytotoxicity MTT assay in HepG2 liver cell line. In kind it is cell-based. The following applies: Homo sapiens. How it is done:
Additionally, the antimicrobial compounds were analyzed for cytotoxicity. […] We utilized the standard MTT assay (Promega CellTiter 96) and GraphPad Prism 7 software to determine EC50 values for each analogue. Briefly, 20,000 HepG2 cells in 200 μl of the ATCC recommended media were seeded in each well of a 96-well plate with a moisture barrier created in the outermost wells. The cells were allowed to attach overnight at 37° C., and then observed under phase contrast microscopy for proper morphological characteristics. If cells appeared healthy and attached, test compounds were added in 7 concentrations from […] (n=3) from freshly prepared DMSO stock plates. […] Once incubations were complete, the spectrophotometric absorbance of the samples was measured at a wavelength of 595 nm. […] For the HepaRG assay, NoSpin HepaRG™ cells (Lonza, cat #NSHPRG) were thawed and plated with 20,000 cells per well. They were allowed to attach for 4 h (optimal DME profile per Lonza's testing) before dosing following the identical protocol as above.

Converted amounts (≈) assume the structure as drawn.

This passage reports EC50 results from US20250382269A1 (CFD Research Corporation, priority 2019, published 2025).

`Cc1[nH]c2ccccc2c1Sc1ccc(Br)cc1` [Compound 172C, 3-((4-bromophenyl)thio)-2-methyl-1H-indole] gave an EC50 of 26.8 µg/mL (≈ 84.2 µM).
